ChEMBL document CHEMBL4811322, “Impact of α-modifications on the activity of triazole bisphosphonates as geranylgeranyl diphosphate synthase inhibitors” (Bioorg Med Chem, 2021)

Biological target: T1, Geranylgeranyl pyrophosphate synthase (Homo sapiens, UniProt O95749)
T1 sequence (O95749 whole entry): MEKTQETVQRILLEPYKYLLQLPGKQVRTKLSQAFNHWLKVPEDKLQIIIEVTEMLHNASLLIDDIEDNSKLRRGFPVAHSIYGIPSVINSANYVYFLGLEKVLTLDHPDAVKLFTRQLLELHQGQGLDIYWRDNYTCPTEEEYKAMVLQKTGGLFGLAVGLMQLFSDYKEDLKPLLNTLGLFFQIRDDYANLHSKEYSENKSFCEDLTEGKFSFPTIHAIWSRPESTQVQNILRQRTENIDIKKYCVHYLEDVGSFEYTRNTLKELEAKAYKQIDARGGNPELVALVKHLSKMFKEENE
Assay: Inhibition of recombinant GGDPS (unknown origin) using FPP and [14C] IPP as substrate preincubated for 10 mins followed by substrate addition measured after 30 mins by liquid scintillation counting method
Summary of the method: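 In the enzyme assay, each compound was tested in duplicate at multiple concentrations, with three independent experiments. IC50 values were derived from concentration-response curve analysis.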

With `CC(C)=CCC/C(C)=C/Cn1cc(CC(P(=O)(O)O)P(=O)(O)O)nn1` the IC50 was 2200 nM.
